# Assays:
# The chains behind the UniProt entries cited, without tags or fusion partners. Residues count along the entry.
# UniProt Q16584, whole entry: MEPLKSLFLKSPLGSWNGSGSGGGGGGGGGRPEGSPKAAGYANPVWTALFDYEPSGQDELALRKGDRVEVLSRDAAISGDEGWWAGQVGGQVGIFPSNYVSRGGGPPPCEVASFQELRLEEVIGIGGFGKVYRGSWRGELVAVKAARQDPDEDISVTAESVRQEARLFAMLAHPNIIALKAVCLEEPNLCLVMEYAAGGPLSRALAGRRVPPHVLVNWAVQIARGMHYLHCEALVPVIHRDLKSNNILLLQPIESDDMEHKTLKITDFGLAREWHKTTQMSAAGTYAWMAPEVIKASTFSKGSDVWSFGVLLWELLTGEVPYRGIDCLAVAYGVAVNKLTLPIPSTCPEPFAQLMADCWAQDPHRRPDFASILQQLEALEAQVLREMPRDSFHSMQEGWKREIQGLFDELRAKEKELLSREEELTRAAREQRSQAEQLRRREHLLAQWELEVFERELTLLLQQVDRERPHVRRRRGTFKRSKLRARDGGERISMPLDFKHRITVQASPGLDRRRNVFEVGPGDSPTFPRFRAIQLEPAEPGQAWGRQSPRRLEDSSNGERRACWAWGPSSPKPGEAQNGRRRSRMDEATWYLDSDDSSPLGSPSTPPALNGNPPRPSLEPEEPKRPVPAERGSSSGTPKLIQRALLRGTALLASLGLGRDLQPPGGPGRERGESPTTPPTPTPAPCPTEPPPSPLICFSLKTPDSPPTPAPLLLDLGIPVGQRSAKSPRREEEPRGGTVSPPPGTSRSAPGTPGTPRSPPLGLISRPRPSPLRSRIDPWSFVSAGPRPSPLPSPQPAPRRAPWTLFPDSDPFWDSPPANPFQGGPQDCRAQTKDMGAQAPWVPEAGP
# UniProt P04629, 33-796 limits assumed: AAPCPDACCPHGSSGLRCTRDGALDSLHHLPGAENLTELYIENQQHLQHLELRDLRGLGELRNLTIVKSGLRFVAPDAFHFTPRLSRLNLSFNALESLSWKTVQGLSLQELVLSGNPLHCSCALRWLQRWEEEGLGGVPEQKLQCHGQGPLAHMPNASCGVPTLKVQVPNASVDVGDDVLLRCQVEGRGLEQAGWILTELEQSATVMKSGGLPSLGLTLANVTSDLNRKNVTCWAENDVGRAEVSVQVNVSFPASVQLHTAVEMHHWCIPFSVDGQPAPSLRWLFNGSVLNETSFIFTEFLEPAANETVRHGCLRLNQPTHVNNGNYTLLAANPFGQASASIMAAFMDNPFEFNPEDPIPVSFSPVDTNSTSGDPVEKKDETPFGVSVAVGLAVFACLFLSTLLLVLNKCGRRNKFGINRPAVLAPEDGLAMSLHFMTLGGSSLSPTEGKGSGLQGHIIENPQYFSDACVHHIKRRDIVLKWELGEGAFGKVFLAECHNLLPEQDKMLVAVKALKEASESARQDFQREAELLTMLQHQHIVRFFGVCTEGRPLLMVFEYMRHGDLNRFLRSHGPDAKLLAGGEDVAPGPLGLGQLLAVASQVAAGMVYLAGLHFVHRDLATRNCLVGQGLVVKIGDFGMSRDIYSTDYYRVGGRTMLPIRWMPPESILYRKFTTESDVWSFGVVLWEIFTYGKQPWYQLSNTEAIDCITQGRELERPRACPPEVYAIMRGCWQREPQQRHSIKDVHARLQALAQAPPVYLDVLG
# UniProt O15264, whole entry: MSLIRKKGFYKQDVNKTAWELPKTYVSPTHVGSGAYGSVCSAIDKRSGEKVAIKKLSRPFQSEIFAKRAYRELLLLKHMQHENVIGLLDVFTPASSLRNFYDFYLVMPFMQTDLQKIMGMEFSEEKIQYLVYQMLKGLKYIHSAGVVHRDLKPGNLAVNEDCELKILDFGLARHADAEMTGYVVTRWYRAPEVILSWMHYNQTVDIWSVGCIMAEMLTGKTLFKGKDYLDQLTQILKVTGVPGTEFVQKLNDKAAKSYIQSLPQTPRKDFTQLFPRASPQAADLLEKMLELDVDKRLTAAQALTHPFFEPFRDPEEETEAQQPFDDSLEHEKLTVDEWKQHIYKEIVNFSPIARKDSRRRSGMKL
# UniProt P06213, 28-1382 limits assumed: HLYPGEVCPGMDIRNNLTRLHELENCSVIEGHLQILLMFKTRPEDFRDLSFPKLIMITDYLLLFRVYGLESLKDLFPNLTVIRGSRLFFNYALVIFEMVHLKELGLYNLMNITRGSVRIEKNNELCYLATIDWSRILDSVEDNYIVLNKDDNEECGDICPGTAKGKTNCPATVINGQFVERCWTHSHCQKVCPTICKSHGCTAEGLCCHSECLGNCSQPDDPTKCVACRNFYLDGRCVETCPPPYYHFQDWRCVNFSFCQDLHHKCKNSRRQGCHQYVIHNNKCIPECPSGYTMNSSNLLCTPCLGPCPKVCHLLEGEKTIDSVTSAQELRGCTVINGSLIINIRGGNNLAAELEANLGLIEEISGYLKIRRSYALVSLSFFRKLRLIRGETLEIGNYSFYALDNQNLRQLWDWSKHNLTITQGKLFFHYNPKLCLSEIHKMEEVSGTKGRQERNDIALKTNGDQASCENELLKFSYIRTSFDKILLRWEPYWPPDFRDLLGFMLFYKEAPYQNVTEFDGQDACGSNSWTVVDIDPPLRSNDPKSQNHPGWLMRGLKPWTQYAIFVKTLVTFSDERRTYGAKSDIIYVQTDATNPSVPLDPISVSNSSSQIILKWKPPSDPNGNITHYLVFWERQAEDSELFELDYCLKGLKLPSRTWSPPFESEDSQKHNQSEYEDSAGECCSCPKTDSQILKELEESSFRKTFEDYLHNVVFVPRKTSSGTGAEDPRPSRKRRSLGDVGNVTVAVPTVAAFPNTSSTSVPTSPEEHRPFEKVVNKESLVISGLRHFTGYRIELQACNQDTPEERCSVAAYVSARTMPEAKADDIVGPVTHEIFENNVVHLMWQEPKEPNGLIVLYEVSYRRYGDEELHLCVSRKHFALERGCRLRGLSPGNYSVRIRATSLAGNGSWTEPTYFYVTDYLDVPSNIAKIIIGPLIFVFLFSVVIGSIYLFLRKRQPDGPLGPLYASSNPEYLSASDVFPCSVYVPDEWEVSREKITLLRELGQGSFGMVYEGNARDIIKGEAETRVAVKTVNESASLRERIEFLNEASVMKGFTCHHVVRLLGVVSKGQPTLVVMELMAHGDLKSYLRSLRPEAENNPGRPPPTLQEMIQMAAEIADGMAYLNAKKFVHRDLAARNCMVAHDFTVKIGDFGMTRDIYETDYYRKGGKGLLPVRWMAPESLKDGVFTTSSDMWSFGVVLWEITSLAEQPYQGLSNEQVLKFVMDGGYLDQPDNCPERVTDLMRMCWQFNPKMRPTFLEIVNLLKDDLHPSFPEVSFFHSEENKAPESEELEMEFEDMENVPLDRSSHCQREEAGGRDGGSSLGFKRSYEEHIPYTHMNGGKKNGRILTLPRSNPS
# UniProt Q16644, whole entry: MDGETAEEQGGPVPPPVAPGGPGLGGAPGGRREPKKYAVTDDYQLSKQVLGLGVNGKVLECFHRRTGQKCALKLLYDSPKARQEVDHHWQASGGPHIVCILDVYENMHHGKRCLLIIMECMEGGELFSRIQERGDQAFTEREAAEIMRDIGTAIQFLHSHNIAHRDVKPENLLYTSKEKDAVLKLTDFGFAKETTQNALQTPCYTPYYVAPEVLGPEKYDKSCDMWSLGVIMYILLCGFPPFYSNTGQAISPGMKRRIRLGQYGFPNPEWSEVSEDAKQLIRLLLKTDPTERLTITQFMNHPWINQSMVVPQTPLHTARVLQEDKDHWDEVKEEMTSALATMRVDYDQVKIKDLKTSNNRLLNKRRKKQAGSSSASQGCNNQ
# UniProt P49137, whole entry: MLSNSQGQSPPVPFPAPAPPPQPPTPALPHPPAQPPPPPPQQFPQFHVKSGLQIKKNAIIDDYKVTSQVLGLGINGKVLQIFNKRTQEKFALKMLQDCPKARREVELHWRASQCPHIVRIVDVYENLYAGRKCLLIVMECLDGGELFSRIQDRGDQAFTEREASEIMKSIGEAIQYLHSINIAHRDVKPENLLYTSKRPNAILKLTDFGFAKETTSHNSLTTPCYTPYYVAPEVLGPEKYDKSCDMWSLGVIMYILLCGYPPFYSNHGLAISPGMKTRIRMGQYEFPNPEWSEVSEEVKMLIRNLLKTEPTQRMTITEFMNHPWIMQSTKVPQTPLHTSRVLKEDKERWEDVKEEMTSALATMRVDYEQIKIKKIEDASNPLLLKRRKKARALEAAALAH
# UniProt P28482, whole entry: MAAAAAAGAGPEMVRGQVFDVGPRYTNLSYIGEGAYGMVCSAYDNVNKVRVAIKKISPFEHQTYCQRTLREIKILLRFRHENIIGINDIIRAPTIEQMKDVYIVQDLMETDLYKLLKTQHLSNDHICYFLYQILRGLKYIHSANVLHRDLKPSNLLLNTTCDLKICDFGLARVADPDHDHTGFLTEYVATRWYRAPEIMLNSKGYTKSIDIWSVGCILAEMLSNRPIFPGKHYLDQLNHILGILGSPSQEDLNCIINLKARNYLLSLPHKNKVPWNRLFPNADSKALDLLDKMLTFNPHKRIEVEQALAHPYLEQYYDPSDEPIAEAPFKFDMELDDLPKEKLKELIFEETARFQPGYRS
# UniProt Q9NWZ3, whole entry: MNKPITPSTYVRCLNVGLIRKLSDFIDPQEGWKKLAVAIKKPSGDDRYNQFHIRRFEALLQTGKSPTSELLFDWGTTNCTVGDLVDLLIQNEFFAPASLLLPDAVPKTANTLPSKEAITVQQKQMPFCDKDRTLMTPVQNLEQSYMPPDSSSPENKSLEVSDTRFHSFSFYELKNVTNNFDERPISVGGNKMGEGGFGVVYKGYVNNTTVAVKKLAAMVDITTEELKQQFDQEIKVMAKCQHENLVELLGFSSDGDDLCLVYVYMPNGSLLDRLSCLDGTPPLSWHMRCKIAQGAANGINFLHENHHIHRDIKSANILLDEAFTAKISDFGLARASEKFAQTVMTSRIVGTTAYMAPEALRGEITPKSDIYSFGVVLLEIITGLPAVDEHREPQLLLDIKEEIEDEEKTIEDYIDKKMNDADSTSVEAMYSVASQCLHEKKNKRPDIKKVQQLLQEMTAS
# UniProt Q8TD08, whole entry: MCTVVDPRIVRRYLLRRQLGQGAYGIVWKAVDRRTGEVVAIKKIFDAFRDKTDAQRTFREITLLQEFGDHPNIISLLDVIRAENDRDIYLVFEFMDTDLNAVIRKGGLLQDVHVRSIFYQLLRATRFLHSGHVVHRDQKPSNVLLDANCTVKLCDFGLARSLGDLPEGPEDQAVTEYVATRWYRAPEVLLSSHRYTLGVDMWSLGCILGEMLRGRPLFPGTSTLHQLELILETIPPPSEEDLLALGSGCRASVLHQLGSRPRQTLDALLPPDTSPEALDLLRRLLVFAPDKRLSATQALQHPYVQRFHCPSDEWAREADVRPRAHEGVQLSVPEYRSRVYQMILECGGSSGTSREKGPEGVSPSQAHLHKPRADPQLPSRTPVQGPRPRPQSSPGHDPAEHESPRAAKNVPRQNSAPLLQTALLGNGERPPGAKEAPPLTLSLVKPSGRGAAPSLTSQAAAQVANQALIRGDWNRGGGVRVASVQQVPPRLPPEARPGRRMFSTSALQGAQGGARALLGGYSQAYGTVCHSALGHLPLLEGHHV
# UniProt P80192, whole entry: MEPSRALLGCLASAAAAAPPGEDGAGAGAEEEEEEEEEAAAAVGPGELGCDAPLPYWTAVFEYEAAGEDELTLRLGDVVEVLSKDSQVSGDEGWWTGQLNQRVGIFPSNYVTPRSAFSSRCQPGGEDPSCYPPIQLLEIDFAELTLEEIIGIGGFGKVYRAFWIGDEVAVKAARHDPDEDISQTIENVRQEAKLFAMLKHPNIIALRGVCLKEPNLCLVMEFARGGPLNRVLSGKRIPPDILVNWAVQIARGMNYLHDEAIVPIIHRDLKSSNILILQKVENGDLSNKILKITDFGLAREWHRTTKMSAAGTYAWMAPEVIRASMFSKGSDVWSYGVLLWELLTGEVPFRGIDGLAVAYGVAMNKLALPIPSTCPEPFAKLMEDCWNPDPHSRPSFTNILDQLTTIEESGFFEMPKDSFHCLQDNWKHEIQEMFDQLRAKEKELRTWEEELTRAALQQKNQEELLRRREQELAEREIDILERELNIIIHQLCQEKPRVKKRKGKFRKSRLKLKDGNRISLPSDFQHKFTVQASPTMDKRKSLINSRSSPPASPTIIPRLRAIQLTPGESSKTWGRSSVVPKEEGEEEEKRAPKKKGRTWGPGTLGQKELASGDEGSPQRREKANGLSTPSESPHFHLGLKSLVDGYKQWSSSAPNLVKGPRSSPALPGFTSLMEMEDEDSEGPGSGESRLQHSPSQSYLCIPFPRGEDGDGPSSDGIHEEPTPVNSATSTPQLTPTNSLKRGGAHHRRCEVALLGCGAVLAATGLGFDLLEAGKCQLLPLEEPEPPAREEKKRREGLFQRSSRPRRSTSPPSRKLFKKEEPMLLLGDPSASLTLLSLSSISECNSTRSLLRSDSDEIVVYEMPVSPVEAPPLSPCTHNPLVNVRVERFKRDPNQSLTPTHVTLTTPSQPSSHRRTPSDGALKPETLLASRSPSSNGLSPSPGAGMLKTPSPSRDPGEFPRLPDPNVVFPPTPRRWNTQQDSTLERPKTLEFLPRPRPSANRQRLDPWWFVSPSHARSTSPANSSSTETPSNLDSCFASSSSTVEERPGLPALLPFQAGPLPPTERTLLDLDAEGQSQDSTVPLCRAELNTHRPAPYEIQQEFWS
# [1] = system: HCT116 human colon carcinoma cells; assay: HCT116 cell growth inhibition; settings: read-out: GI50 HCT116, 72 h incubation
# [2] = system: SW620 human colon carcinoma cells; assay: SW620 cell growth inhibition; settings: read-out: GI50 SW620, 72 h incubation
# SYK = SYK (Homo sapiens, UniProt P43405); assay: Kinase selectivity profiling; assay type: biochemical; settings: 1 µM, assay duplicates
# Method: (§1) [20] Kinase selectivity profiling for compounds 7a, 7d, 14d and 14g was carried out at the International Centre for Protein Kinase Profiling, Division of Signal Transduction Therapy, University of Dundee.
# (§2) Table S1: Kinase selectivity profiling of compounds 7a and 7d in a 102-kinase panel screened at a concentration of 1 µM.
# (§3) Table S2: Kinase selectivity profiling of compounds 14d and 14g in a 105-kinase panel screened at a concentration of 1 µM.
# SRPK1 = SRPK1 (Homo sapiens, UniProt Q96SB4); assay: Kinase selectivity profiling; assay type: biochemical; settings: 1 µM, assay duplicates
# Method: as §1, §2, §3
# MLK3 = MLK3 (Homo sapiens, UniProt Q16584); assay: Kinase selectivity profiling; assay type: biochemical; settings: 1 µM, assay duplicates
# Method: as §1, §2, §3
# TrkA = TrkA (Homo sapiens, UniProt P04629); assay: Kinase selectivity profiling; assay type: biochemical; settings: for TrkA inhibition: 1 μM; for TrkA % activity remaining: 1 µM, assay duplicates
# Method: as §1, §2, §3
# MARK3 = MARK3 (Homo sapiens, UniProt P27448); assay: Kinase selectivity profiling; assay type: biochemical; settings: 1 µM, assay duplicates
# Method: as §1, §2, §3
# IGF-1R = IGF-1R (Homo sapiens, UniProt P08069); assay: Kinase selectivity profiling; assay type: biochemical; settings: 1 µM, assay duplicates
# Method: as §1, §2, §3
# p38d MAPK = p38d MAPK (Homo sapiens, UniProt O15264); assay: Kinase selectivity profiling; assay type: biochemical; settings: 1 µM, assay duplicates
# Method: as §1, §2, §3
# RIPK2 = RIPK2 (Homo sapiens, UniProt O43353); assay: Kinase selectivity profiling; assay type: biochemical; settings: 1 µM, assay duplicates
# Method: as §1, §2, §3
# PKA = PKA (Homo sapiens, UniProt P17612); assay: Kinase selectivity profiling; assay type: biochemical; settings: 1 µM, assay duplicates
# Method: as §1, §2, §3
# IR = IR (Homo sapiens, UniProt P06213); assay: Kinase selectivity profiling; assay type: biochemical; settings: 1 µM, assay duplicates
# Method: as §1, §2, §3
# BRSK2 = BRSK2 (Homo sapiens, UniProt Q8IWQ3); assay: Kinase selectivity profiling; assay type: biochemical; settings: 1 µM, assay duplicates
# Method: as §1, §2, §3
# IKKb = IKKb (Homo sapiens, UniProt O14920); assay: Kinase selectivity profiling; assay type: biochemical; settings: 1 µM, assay duplicates
# Method: as §1, §2, §3
# PAK5 = PAK5 (Homo sapiens, UniProt Q9P286); assay: Kinase selectivity profiling; assay type: biochemical; settings: 1 µM, assay duplicates
# Method: as §1, §2, §3
# EPH-B3 = EPH-B3 (Homo sapiens, UniProt P54753); assay: Kinase selectivity profiling; assay type: biochemical; settings: 1 µM, assay duplicates
# Method: as §1, §2, §3
# MAPKAP-K3 = MAPKAP-K3 (Homo sapiens, UniProt Q16644); assay: Kinase selectivity profiling; assay type: biochemical; settings: 1 µM, assay duplicates
# Method: as §1, §2, §3
# TTK = TTK (Homo sapiens, UniProt P33981); assay: Kinase selectivity profiling; assay type: biochemical; settings: 1 µM, assay duplicates
# Method: as §1, §2, §3
# MKK1 = MKK1 (Homo sapiens, UniProt Q02750); assay: Kinase selectivity profiling; assay type: biochemical; settings: 1 µM, assay duplicates
# Method: as §1, §2, §3
# PKD1 = PKD1 (Homo sapiens, UniProt Q15139); assay: Kinase selectivity profiling; assay type: biochemical; settings: 1 µM, assay duplicates
# Method: as §1, §2, §3
# DYRK2 = DYRK2 (Homo sapiens, UniProt Q92630); assay: Kinase selectivity profiling; assay type: biochemical; settings: 1 µM, assay duplicates
# Method: as §1, §2, §3
# CK2 = CK2 (Homo sapiens, UniProt P68400); assay: Kinase selectivity profiling; assay type: biochemical; settings: 1 µM, assay duplicates
# Method: as §1, §2, §3
# MAPKAP-K2 = MAPKAP-K2 (Homo sapiens, UniProt P49137); assay: Kinase selectivity profiling; assay type: biochemical; settings: 1 µM, assay duplicates
# Method: as §1, §2, §3
# JNK3 = JNK3 (Homo sapiens, UniProt P53779); assay: Kinase selectivity profiling; assay type: biochemical; settings: 1 µM, assay duplicates
# Method: as §1, §2, §3
# ERK2 = ERK2 (Homo sapiens, UniProt P28482); assay: Kinase selectivity profiling; assay type: biochemical; settings: 1 µM, assay duplicates
# Method: as §1, §2, §3
# NEK2a = NEK2a (Homo sapiens, UniProt P51955); assay: Kinase selectivity profiling; assay type: biochemical; settings: 1 µM, assay duplicates
# Method: as §1, §2, §3
# MEKK1 = MEKK1 (Homo sapiens, UniProt Q13233); assay: Kinase selectivity profiling; assay type: biochemical; settings: 1 µM, assay duplicates
# Method: as §1, §2, §3
# PLK1 = PLK1 (Homo sapiens, UniProt P53350); assay: Kinase selectivity profiling; assay type: biochemical; settings: 1 µM, assay duplicates
# Method: as §1, §2, §3
# PIM2 = PIM2 (Homo sapiens, UniProt Q9P1W9); assay: Kinase selectivity profiling; assay type: biochemical; settings: 1 µM, assay duplicates
# Method: as §1, §2, §3
# EPH-A4 = EPH-A4 (Homo sapiens, UniProt P54764); assay: Kinase selectivity profiling; assay type: biochemical; settings: 1 µM, assay duplicates
# Method: as §1, §2, §3
# PKBb = PKBb (Homo sapiens, UniProt P31751); assay: Kinase selectivity profiling; assay type: biochemical; settings: 1 µM, assay duplicates
# Method: as §1, §2, §3
# JNK2 = JNK2 (Homo sapiens, UniProt P45984); assay: Kinase selectivity profiling; assay type: biochemical; settings: 1 µM, assay duplicates
# Method: as §1, §2, §3
# CK1 = CK1 (Homo sapiens, UniProt P48730); assay: Kinase selectivity profiling; assay type: biochemical; settings: 1 µM, assay duplicates
# Method: as §1, §2, §3
# IRAK4 = IRAK4 (Homo sapiens, UniProt Q9NWZ3); assay: Kinase selectivity profiling; assay type: biochemical; settings: 1 µM, assay duplicates
# Method: as §1, §2, §3
# MELK = MELK (Homo sapiens, UniProt Q14680); assay: Kinase selectivity profiling; assay type: biochemical; settings: 1 µM, assay duplicates
# Method: as §1, §2, §3
# EF2K = EF2K (Homo sapiens, UniProt O00418); assay: Kinase selectivity profiling; assay type: biochemical; settings: 1 µM, assay duplicates
# Method: as §1, §2, §3
# p38a MAPK = p38a MAPK (Homo sapiens, UniProt Q16539); assay: Kinase selectivity profiling; assay type: biochemical; settings: 1 µM, assay duplicates
# Method: as §1, §2, §3
# ERK8 = ERK8 (Homo sapiens, UniProt Q8TD08); assay: Kinase selectivity profiling; assay type: biochemical; settings: for ERK8 inhibition: 1 μM; for ERK8 % activity remaining: 1 µM, assay duplicates
# Method: as §1, §2, §3
# DYRK3 = DYRK3 (Homo sapiens, UniProt O43781); assay: Kinase selectivity profiling; assay type: biochemical; settings: 1 µM, assay duplicates
# Method: as §1, §2, §3
# MLK1 = MLK1 (Homo sapiens, UniProt P80192); assay: Kinase selectivity profiling; assay type: biochemical; settings: for MLK1 inhibition: 1 μM; for MLK1 % activity remaining: 1 µM, assay duplicates
# Method: as §1, §2, §3
# MARK4 = MARK4 (Homo sapiens, UniProt Q96L34); assay: Kinase selectivity profiling; assay type: biochemical; settings: 1 µM, assay duplicates
# Method: as §1, §2, §3
# RSK2 = RSK2 (Homo sapiens, UniProt P51812); assay: Kinase selectivity profiling; assay type: biochemical; settings: 1 µM, assay duplicates
# Method: as §1, §2, §3
structure (smiles),measurement,setting,value
Cc1nn(C)cc1-c1nc2c(-c3cnn(Cc4ccc(Cl)cc4)c3)c(Cl)cnc2[nH]1,GI50,[1],240 nM
same,GI50,[2],260 nM
same,SYK % activity remaining,SYK,74%
same,SRPK1 % activity remaining,SRPK1,72%
same,MLK3 % activity remaining,MLK3,3%
same,TrkA inhibition,TrkA,greater than 80%
same,TrkA % activity remaining,TrkA,8%
same,MARK3 % activity remaining,MARK3,25%
same,IGF-1R % activity remaining,IGF-1R,8%
same,p38d MAPK % activity remaining,p38d MAPK,52%
same,RIPK2 % activity remaining,RIPK2,59%
same,PKA % activity remaining,PKA,62%
same,IR % activity remaining,IR,34%
same,BRSK2 % activity remaining,BRSK2,33%
same,IKKb % activity remaining,IKKb,68%
same,PAK5 % activity remaining,PAK5,49%
same,EPH-B3 % activity remaining,EPH-B3,86%
same,MAPKAP-K3 % activity remaining,MAPKAP-K3,79%
same,TTK % activity remaining,TTK,37%
same,MKK1 % activity remaining,MKK1,27%
same,PKD1 % activity remaining,PKD1,92%
same,DYRK2 % activity remaining,DYRK2,15%
same,CK2 % activity remaining,CK2,30%
same,MAPKAP-K2 % activity remaining,MAPKAP-K2,102%
same,JNK3 % activity remaining,JNK3,40%
same,ERK2 % activity remaining,ERK2,24%
same,NEK2a % activity remaining,NEK2a,68%
same,MEKK1 % activity remaining,MEKK1,78%
same,PLK1 % activity remaining,PLK1,70%
same,PIM2 % activity remaining,PIM2,98%
same,EPH-A4 % activity remaining,EPH-A4,90%
same,PKBb % activity remaining,PKBb,105%
same,JNK2 % activity remaining,JNK2,49%
same,CK1 % activity remaining,CK1,92%
same,IRAK4 % activity remaining,IRAK4,52%
same,MELK % activity remaining,MELK,27%
same,EF2K % activity remaining,EF2K,101%
same,p38a MAPK % activity remaining,p38a MAPK,91%
same,ERK8 inhibition,ERK8,greater than 80%
same,ERK8 % activity remaining,ERK8,8%
same,DYRK3 % activity remaining,DYRK3,19%
same,MLK1 inhibition,MLK1,greater than 80%
same,MLK1 % activity remaining,MLK1,6%
same,MARK4 % activity remaining,MARK4,60%
same,RSK2 % activity remaining,RSK2,43%
CNCc1cccc(Cn2cc(-c3c(Cl)cnc4[nH]c(-c5cn(C)nc5C)nc34)cn2)c1,GI50,[1],230 nM
same,GI50,[2],340 nM
same,SYK % activity remaining,SYK,30%
same,SRPK1 % activity remaining,SRPK1,53%
same,MLK3 % activity remaining,MLK3,4%
same,TrkA inhibition,TrkA,≥ 80%
same,TrkA % activity remaining,TrkA,8%
same,MARK3 % activity remaining,MARK3,44%
same,IGF-1R % activity remaining,IGF-1R,3%
same,p38d MAPK % activity remaining,p38d MAPK,37%
same,RIPK2 % activity remaining,RIPK2,68%
same,PKA % activity remaining,PKA,42%
same,IR % activity remaining,IR,20%
same,BRSK2 % activity remaining,BRSK2,77%
same,IKKb % activity remaining,IKKb,69%
same,PAK5 % activity remaining,PAK5,48%
same,EPH-B3 % activity remaining,EPH-B3,39%
same,MAPKAP-K3 % activity remaining,MAPKAP-K3,95%
same,TTK % activity remaining,TTK,45%
same,MKK1 % activity remaining,MKK1,39%
same,PKD1 % activity remaining,PKD1,82%
same,DYRK2 % activity remaining,DYRK2,58%
same,CK2 % activity remaining,CK2,55%
same,MAPKAP-K2 % activity remaining,MAPKAP-K2,84%
same,JNK3 % activity remaining,JNK3,40%
same,ERK2 % activity remaining,ERK2,18%
same,NEK2a % activity remaining,NEK2a,86%
same,MEKK1 % activity remaining,MEKK1,12%
same,PLK1 % activity remaining,PLK1,101%
same,PIM2 % activity remaining,PIM2,80%
same,EPH-A4 % activity remaining,EPH-A4,29%
same,PKBb % activity remaining,PKBb,70%
same,JNK2 % activity remaining,JNK2,35%
same,CK1 % activity remaining,CK1,49%
same,IRAK4 % activity remaining,IRAK4,47%
same,MELK % activity remaining,MELK,58%
same,EF2K % activity remaining,EF2K,92%
same,p38a MAPK % activity remaining,p38a MAPK,94%
same,ERK8 inhibition,ERK8,≥ 80%
same,ERK8 % activity remaining,ERK8,1%
same,DYRK3 % activity remaining,DYRK3,36%
same,MLK1 inhibition,MLK1,≥ 80%
same,MLK1 % activity remaining,MLK1,8%
same,MARK4 % activity remaining,MARK4,33%
same,RSK2 % activity remaining,RSK2,10%

# Source: article PMC4577729, “7-(Pyrazol-4-yl)-3H-imidazo[4,5-b]pyridine-based derivatives for kinase inhibition: Co-crystallisation studies with Aurora-A reveal distinct differences in the orientation of the pyrazole N1-substituent” (Bioorganic & Medicinal Chemistry Letters, 2015)
